Results: paper PMC13619035 (British Journal of Clinical Pharmacology, 2026)

Experiment: Single-dose pharmacokinetic study in healthy volunteers, plasma concentrations by LC-MS/MS
Type: in vivo
Details: human, po

COc1ccc2[nH]c([S+]([O-])Cc3ncc(C)c(OC)c3C)nc2c1 (stereo not shown) [omeprazole]
Tmax: 1.5 h
